Assay results as given in PubChem BioAssay AID485298 (National Center for Advancing Translational Sciences (NCATS), 2010).
Only a part is listed here, and it is no random draw. Calls of active or inactive are those of the source. Calls come from the whole dose curve; as a rule, active = well fitted activation curve with a large enough effect; inconclusive = small, poorly fitted or top-dose-only effect; inactive = no such curve, though single readings can be large or run the other way.

Test: qHTS Assay for Small Molecule Inhibitors of Mitochondrial Division or Activators of Mitochondrial Fusion; note: nearly all actives have a fitted effect of over 45% in size; for growth rescue (activation): % of control where 0% means no effect
Conditions: S. cerevisiae fusion-defective mutant growth rescue, CellTiterGlo 48 h; series mostly up to 46.1 µM; growth rescue (activation): at the top concentration
Description: NIH Chemical Genomics Center [NCGC] NIH Molecular Libraries Probe Production centers Network [MLPCN] MLPCN Grant: MH081279-01 Assay Submitter (PI): Jodi M. Nunnari NCGC Assay Overview: The budding yeast S. cerevisiae is a powerful system to study mitochondrial fusion. Unlike other organisms, yeast cells without functional mitochondrial DNA (mtDNA) can be propagated and studied as long as they maintain a mitochondrial compartment and are provided with a fermentable carbon source. When mitochondrial fusion is blocked in yeast, mitochondrial tubules rapidly fragment and division continues unopposed. Under conditions where fusion is compromised in mammalian cells, nearly identical changes in mitochondrial structure have been observed. Thus, these findings indicate that steady state mitochondrial structure in cells is a characteristic and specific indicator of fusion activity. Mounting evidence has pointed to a connection between mitochondrial dynamics and apoptosis in mammalian cells. These studies indicate that in mammalian cells mitochondrial dynamics are more integrated into cellular processes than in yeast cells and have evolved not only to distribute the organelle but also to aid in the regulation of cellular homeostasis. Mitochondrial fusion proteins attenuate apoptosis by inhibiting the release of cytochrome c from mitochondria, in part by controlling cristae structures. Thus, small molecules that inhibit mitochondrial […] may promote apoptosis and potentially act as novel chemotherapeutics and stimulation of apoptosis has become an attractive target of anti-cancer therapies. To identify inhibitors of mitochondrial division, we exploit the growth phenotypes of mitochondrial fusion-defective mutants. The temperature sensitive fusion alleles, such as fzo1-1 and mgm1-5, cause mitochondrial membranes to fragment in cells under non-permissive conditions and cells lose mtDNA, and are unable to grow in the presence of non-fermentable carbon source glycerol. Inhibiting mitochondrial division rescues growth. We have developed and optimized a luminescence cell viability assay in 1536 well format for the identification of inhibitors in the yeast mitochondrial fusion-defective assay.
The yeast glycerol stocks where kindly supplied by the laboratory of Dr. Jodi Nunnari, University of California, Davis. All yeast glycerol stock solutions were stored in single use aliquots at -80C. The CellTiterGlo luminescence reagent, containing luciferase and luciferin, were purchased from Promega, and the reagents were stored according to manufacturer's instructions. The Buffer components for the YPEG yeast growth medium were purchased from Sigma-Aldrich (St. Louis, MO). YPEG growth medium: 1% (w/v) yeast extract, 2% (w/v) Bacto-peptone, 3% Ethanol, 3% glycerol, 0.4mM Tryptophan, 0.36mM Adenine. qHTS Assay Protocol: 1.#Dispense 2.5 ul yeast growth medium per 1536 well plate. 2.#Transfer 23 nl per well of compound to plate. 3.#Dispense 2.5 ul yeast solution at appropriate seeding density per well. 4.#Incubate for 48 hours at 37C. 5.#Dispense 5 ul of CellTiterGlow solution per well. 6.#Incubate at ambient for 10 minutes. 7.#Read using bio-luminescence protocol on Viewlux.
Potency is the fitted concentration of half-maximal effect.

SMILES | growth rescue (activation) | Potency
NS(=O)(=O)c1cccc(NC(=O)COC(=O)C(O)(c2ccccc2)c2ccccc2)c1 | inactive: -2.73% | –
O=P1(Nc2ccc(Br)cn2)COc2ccccc2OC1 | inactive: 0.349% | –
O=[As](O)(c1cccs1)c1cccs1 | inactive: -7.51% | –
Cc1ccc(OCC(=O)OC2CN3CCC2CC3)cc1 (centres undefined) | inactive: 6.8% | –
Nc1cccc([As](=O)(O)c2ccccc2)c1 | inactive: -4.15% | –
O=P1(Nc2ncccn2)COc2ccccc2OC1 | inactive: -2.22% | –
O=C(/C=C/c1ccccc1)OC1CN2CCC1CC2 (centres undefined) | inactive: 7.31% | –
CN(C)C1(CNC(=O)c2ccc(S(C)(=O)=O)cc2)CCCCC1 | inactive: 0.685% | –
Cc1nn(-c2ccccc2)c2c1P(=O)(N1CCOCC1)N(C)C(c1ccccc1)=N2 (centres undefined) | inactive: 5.81% | –
Cc1ccc(C(=O)OC2CN3CCC2CC3)cc1 (centres undefined) | inactive: -15.1% | –
CC1CCC(C(C)C)C(OP(=O)(Nc2ccccn2)c2ccccc2)C1 (centres undefined) | inactive: 1.82% | –
O=[As](O)(c1ccccc1Br)c1ccccc1Br | inactive: 1.93% | –
CN(C(=O)Cc1ccc(Cl)c(Cl)c1)[C@@H]1CCCC[C@H]1N1CCCC1 | inactive: 3.98% | –
CC(C)/C=N\N=C(\N)N[N+](=O)[O-] | inactive: 2.54% | –
COc1ccccc1CNC(=O)COC(=O)C(O)(c1ccccc1)c1ccccc1 | inactive: 3.96% | –
Clc1n[nH]nc1-c1nn[nH][15n]1 | inactive: 2.71% | –
CC(C)(C)C(=O)NC(Sc1ncccn1)C(Cl)(Cl)Cl (centres undefined) | inactive: 3.45% | –
CN(CCCl)Cc1cc(Cl)c(NC2=NCCN2)c(Cl)c1 | inactive: 11.7% | –
CCOP(=O)(Nc1ccc(C)cn1)OCC | inactive: 20.4% | –
CCC1=CC2Cc3nc4ccc(Cl)cc4c(N)c3C(C1)C2 (centres undefined) | inactive: -5.56% | –

SMILES | growth rescue (activation) | Potency
O=P1(Nc2ccccn2)COc2ccccc2OC1 | inactive: -2.39% | –
CCOP(=O)(NC(=NC(C)c1ccccc1)NC(C)c1ccccc1)OCC (centres undefined) | inactive: -12% | –
COc1cc(C2NCCC3(OCCO3)C2(C)C)cc(OC)c1OC (centres undefined) | inactive: -4.38% | –
CCOP(=O)(Nc1cccc2ccccc12)OCC | inactive: -9.1% | –
CCCOP(=S)(Nc1nc(N)cc(=O)[nH]1)OCCC | inactive: -7.32% | –
Nc1cccc2c([As](=O)(O)O)cccc12 | inactive: -18.2% | –
Cc1ccc(NCCc2c([N+](=O)[O-])cc([N+](=O)[O-])cc2[N+](=O)[O-])cc1 | inactive: 4.03% | –
O=[As](O)(c1cccc(O)c1)c1cccc(O)c1 | inactive: -4.27% | –
Cc1cccc(OCC(=O)OC2CN3CCC2CC3)c1 (centres undefined) | inactive: 2.25% | –
COc1cc(C(=O)NCC2(N3CCOCC3)CCCCC2)cc(Cl)c1OC(C)C | inactive: -9.05% | –
O=[As](O)(O)c1cccnc1 | inactive: -6.6% | –
CS(=O)(=O)c1ccc(Cl)c(NC(=O)COC(=O)C(O)(c2ccccc2)c2ccccc2)c1 | inactive: 2.2% | –
O=C(OC1CN2CCC1CC2)c1ccc(Cl)cc1 (centres undefined) | inactive: -2.6% | –
CN(C(=O)Cc1ccc(Cl)c(Cl)c1)[C@@H]1CC[C@]2(CCCO2)C[C@H]1N1CCCC1 | inactive: -9.73% | –
O=[N+]([O-])c1ccc2c(c1)nnn2O | inactive: 2.92% | –
N#CCCN(C(=O)COC(=O)C(O)(c1ccccc1)c1ccccc1)c1ccc(F)cc1 | inactive: -0.191% | –
CCOP1(=S)c2c(C)nn(CCC#N)c2N=C(c2ccc(F)cc2)N1C (centres undefined) | inactive: -0.303% | –
CN(C(=O)Cc1ccccc1)[C@@H]1CC[C@]2(CCCO2)C[C@H]1N1CCCC1 | – | inactive
NC(=O)Nc1ccc([As](=O)(O)O)cc1 | inactive: -2.77% | –
O=C(O)COc1ccc([As](=O)(O)O)cc1[N+](=O)[O-] | inactive: 4.53% | –

SMILES | growth rescue (activation) | Potency
Nc1ccccc1[As](=O)(O)c1ccccc1 | inactive: -3.85% | –
CS(=O)(=O)c1cc([N+](=O)[O-])c2no[n+]([O-])c2c1 | inactive: 3.52% | –
CCOP1(=S)c2c(C)nn(CCC#N)c2N=C(c2ccccc2F)N1C (centres undefined) | inactive: 24.7% | –
O=P(Nc1nccs1)(c1ccccc1)c1nc2ccccc2s1 (centres undefined) | inactive: -3.25% | –
O=P(Nc1nccs1)(Oc1ccccc1)Oc1ccccc1 | inactive: 22.5% | –
CCN(CC)C(=S)SC(NC=O)C(Cl)(Cl)Cl (centres undefined) | inactive: 0.441% | –
CC(C)NC(=O)NP(=O)(Oc1ccccc1)Oc1ccccc1 | inactive: -2.61% | –
O=[N+]([O-])c1cc([N+](=O)[O-])c(-c2ccn[nH]2)s1 | – | active: 11.2 µM
CC(C)c1ccc(OP(=O)(Nc2ccccn2)Oc2ccccc2F)cc1 (centres undefined) | inactive: 6.83% | –
ClCCSc1nnc(-c2cccnc2)o1 | inactive: -1.37% | –
Cc1ccc2nc3c(c(C)c2c1)CC(C(Cl)Cl)S3 (centres undefined) | inactive: 5.97% | –
Cc1ccc(OP(=O)(Nc2ccc([N+](=O)[O-])cn2)Oc2ccc(C)cc2)cc1 | inactive: 13.9% | –
C[As](=O)(O)c1cccc(C(=O)O)c1 | inactive: 1.26% | –
O=[As](O)(c1ccc(O)cc1)c1ccccc1O | inactive: 11.5% | –
COc1cc(C(=O)NCC2(N3CCOCC3)CCCCC2)ccc1OCC(C)C | inactive: -2.65% | –
COc1ccc(N/C(=N/P(=O)(N2CCOCC2)N2CCOCC2)N2CCOCC2)cc1 | inactive: -4.15% | –
COc1ccc2nc(NP(=O)(c3ccccc3)c3ccccc3)sc2c1 | inactive: 2.04% | –
COc1cc(I)ccc1[As](=O)(O)O | inactive: -3.95% | –
O=C(OC1CN2CCC1CC2)C12CC3CC(CC(C3)C1)C2 (centres undefined) | inactive: -4.3% | –
